Columns and labels:
[1] = human, pH 7.4
[2] = human, pH 7.4; remark: listed apart in the source

7-β-hydroxy-zearalenol [β-ZOL]
Total Number of Glucuronides [1]: 7 | converted into glucoronides [1]: 51% | glucuronides of oxidized metabolites and double glucuronides (minor products) [1]: 2% | percentage of metabolized parent toxin in phase I reactions ([2]; microsomes, 1 h): 7% | Number of Metabolites (n): Desaturation, oxidation, −(H2) +(O) [2]: 1 | Number of Metabolites (n): Desaturation, oxidation, −(H4) +(O) [2]: 1 | Number of Metabolites (n): Oxidation, +(O2) [2]: 0 | Number of Metabolites (n): Oxidation, −(H4) +(O2) [2]: 0 | ∑ n, total number of oxidized metabolites [2]: 8

Source: PMC6723440 (Toxins, 2019)
